This note sets out measurements from PubChem BioAssay AID485360 (National Center for Advancing Translational Sciences (NCATS), 2010).

Sequences of proteins named here, by UniProt entry; tags and fusion partners are left off.
UniProt Q9Y468, whole entry: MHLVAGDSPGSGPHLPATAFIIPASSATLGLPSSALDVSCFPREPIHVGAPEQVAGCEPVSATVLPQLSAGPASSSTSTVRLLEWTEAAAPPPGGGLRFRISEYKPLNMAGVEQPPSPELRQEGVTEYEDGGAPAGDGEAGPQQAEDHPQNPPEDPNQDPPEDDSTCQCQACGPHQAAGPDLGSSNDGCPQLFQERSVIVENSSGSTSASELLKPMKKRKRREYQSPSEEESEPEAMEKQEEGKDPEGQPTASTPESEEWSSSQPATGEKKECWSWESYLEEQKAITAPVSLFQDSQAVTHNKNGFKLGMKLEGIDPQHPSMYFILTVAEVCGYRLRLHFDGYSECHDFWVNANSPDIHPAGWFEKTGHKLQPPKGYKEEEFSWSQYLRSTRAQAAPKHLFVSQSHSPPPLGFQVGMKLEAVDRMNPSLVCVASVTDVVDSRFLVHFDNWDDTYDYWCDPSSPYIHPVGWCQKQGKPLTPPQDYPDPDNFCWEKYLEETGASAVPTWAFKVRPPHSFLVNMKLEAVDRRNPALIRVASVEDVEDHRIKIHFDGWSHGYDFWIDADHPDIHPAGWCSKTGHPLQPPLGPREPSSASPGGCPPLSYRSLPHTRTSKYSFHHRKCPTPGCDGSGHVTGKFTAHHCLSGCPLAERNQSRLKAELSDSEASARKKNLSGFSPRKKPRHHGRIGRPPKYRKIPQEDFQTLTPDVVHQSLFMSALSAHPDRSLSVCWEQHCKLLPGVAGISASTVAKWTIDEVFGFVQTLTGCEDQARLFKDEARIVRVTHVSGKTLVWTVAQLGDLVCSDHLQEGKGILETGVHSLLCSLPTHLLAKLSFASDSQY

The list shows a part of the results, in another mix than the full data. Inconclusive results are not listed. Active and inactive are the calls of the source. The call rests on the fitted dose curve; in most records, active means well fitted inhibition curve with a large enough effect; inconclusive means small, poorly fitted or top-dose-only effect; inactive means no such curve, though single readings can be large or run the other way.
On the % scale 0 is the no-effect control and ±100 the full control effect.

The test deals with Lethal(3)malignant brain tumor-like protein 1 (Homo sapiens) (UniProt Q9Y468). Nature of the test: qHTS Assay for the Inhibitors of L3MBTL1. Further: nearly all actives have a fitted effect of over 60% in size. Particulars: AlphaScreen L3MBTL1–H3K9me1 peptide binding; at 57.1 µM (top of the series).
As for `CCOC(=O)c1ccc(NP(C)(=O)Oc2ccc(OC)cc2)cc1` (stereo not drawn), the activity, negative = inhibition was inactive: -2.48%.
In the case of `CCOP(C)(=S)SCC(=O)NC(C)C(=O)O` (stereo not drawn), the activity, negative = inhibition is inactive: -12.8%.
Next, `Cc1cc(C)cc(OP(C)(=O)Nc2ccc(SC(F)(F)F)cc2)c1` (stereo not drawn): inactive: 5.57%; `CP(=O)(NC(=O)Nc1ccccc1)Oc1ccccc1` (stereo not drawn): inactive: -6.62%.
In the case of `CP(=O)(Oc1ccccc1)OC(c1ccccc1)C(F)(F)F` (stereo not drawn) it was inactive: 25.2%.
Next, `Cc1cccc(C)c1OP(C)(=O)Nc1ccc(SC(F)(F)F)cc1` (stereo not drawn): inactive: 10.3%; `CP(=O)(Nc1ccccc1Br)Oc1ccccc1` (stereo not drawn): inactive: -1.31%.
Regarding `CP(=S)(Nn1cnnc1)Oc1ccccc1` (stereo not drawn), the activity, negative = inhibition is inactive: -3.96%.
In the case of `Cc1cc(C)cc(OP(C)(N)=O)c1` (stereo not drawn) it was inactive: -11.7%; in that of `COc1ccccc1OP(C)(=O)Nc1cc(Cl)ccc1C` (stereo not drawn), inactive: 2.72%; in that of `COc1ccccc1OP(C)(=O)Nc1ccc(C)cc1` (stereo not drawn), inactive: -5.51%.
Next, `CCOC(=O)c1ccc(NP(C)(=O)Oc2ccccc2)cc1` (stereo not drawn): inactive: -1.1%.
Next, `Cc1cccc(C)c1OP(C)(N)=O` (stereo not drawn): inactive: 14.3%; `CC(C)(C)c1ccc(OP(C)(=O)Nc2ccc(SC(F)(F)F)cc2)cc1` (stereo not drawn): inactive: -0.696%; `COc1cc(C(=O)NCC2(N3CCOCC3)CCCCC2)ccc1OCC(C)C`: inactive: 1.16%.
Consider `O=[N+]([O-])c1cc([N+](=O)[O-])c(Nc2cccnc2)c([N+](=O)[O-])c1`, for which the activity, negative = inhibition is inactive: -9.97%.
Next, `CCN(CC)CCCOC(=O)C(O)(c1ccccc1)c1ccccc1`: inactive: -17.4%; `CP(=O)(Nc1cccc(Br)c1)Oc1ccccc1` (stereo not drawn): inactive: -26.1%; `CCOC(=O)c1ccc(NP(C)(=O)Oc2cc(C)cc(C)c2)cc1` (stereo not drawn): inactive: 2.38%.
In the case of `COc1cc(C(=O)NCC2(N3CCOCC3)CCCCC2)cc(Cl)c1OC(C)C`, the activity, negative = inhibition was inactive: 13.3%.
`CC1=NCCc2c1[nH]c1ccccc21.O=[N+]([O-])c1cc([N+](=O)[O-])c(O)c([N+](=O)[O-])c1`: the activity, negative = inhibition was inactive: -1.34%.
Next, `CCCOc1ccc(NP(C)(=O)Oc2ccc(Cl)cc2)cc1` (stereo not drawn): inactive: -10.3%; `CP(=O)(Nc1ccc(SC(F)(F)F)cc1)Oc1ccccc1` (stereo not drawn): inactive: 7.28%.
Next, `COc1ccccc1OP(C)(=O)Nc1c(C)cccc1C` (stereo not drawn): inactive: 5.18%; `CN1CCCCC1COC(=O)C1(O)c2ccccc2CCc2ccccc21` (stereo not drawn): inactive: -7.45%; `CN(C)C1(CNC(=O)c2ccc(S(C)(=O)=O)cc2)CCCCC1`: inactive: 8%.
Consider `Cc1nc2ccc3ccccc3c2s1.O=[N+]([O-])c1cc([N+](=O)[O-])c(O)c([N+](=O)[O-])c1`, for which the activity, negative = inhibition is inactive: 7.74%.
In the case of `O=[N+]([O-])c1cc([N+](=O)[O-])c(-n2nnc3ccccc32)c([N+](=O)[O-])c1` it was inactive: 2.23%; in that of `Cc1ccccc1NP(C)(=O)Nc1ccccc1C`, inactive: -3.19%.
Next, `CP(=O)(Nc1ccc2c(c1)OCCO2)Oc1ccccc1` (stereo not drawn): inactive: 1.66%; `CCOP(C)(=S)SCC(=O)NC(C)(CC)C(=O)O` (stereo not drawn): inactive: 6.79%; `CP(=O)(Nc1ccc(SC(F)(F)F)cc1)Oc1ccc(F)cc1` (stereo not drawn): inactive: 1.12%.
In the case of `O=[N+]([O-])c1ccc(OP2(=O)COCCO2)cc1` (stereo not drawn) it was inactive: 4.98%; in that of `Cc1cc(-c2cccc3ccccc23)c(C)cn1.O=[N+]([O-])c1cc([N+](=O)[O-])c(O)c([N+](=O)[O-])c1`, inactive: 13.7%.
In the case of `CN(C)CCOC(=O)C(O)(c1ccccc1)C1CCCCC1` (stereo not drawn), the activity, negative = inhibition is inactive: 10.9%.
Next, `COc1ccc(OP(C)(=O)Nc2cccc(Br)c2)cc1` (stereo not drawn): inactive: 2.82%; `CP(=O)(Nc1ccccc1)Oc1ccc(F)cc1` (stereo not drawn): inactive: -0.533%.
Next, `CCCCCOc1ccc(NP(C)(=O)Oc2ccc(Cl)cc2Cl)cc1` (stereo not drawn): inactive: -14.1%; `CCN(CC)CCCOC(=O)C(O)(c1ccccc1)C1CCCCC1` (stereo not drawn): inactive: -1.98%; `CCOC(=O)c1ccc(NP(C)(=O)Oc2ccc(F)cc2)cc1` (stereo not drawn): inactive: -4.61%.
In the case of `COc1ccc(OP(C)(=O)Nc2ccc(SC(F)(F)F)cc2)cc1` (stereo not drawn) it was inactive: 7.74%.
In the case of `O=C(OCCN1CCN(CCOCc2ccccc2)CC1)C(O)(c1ccccc1)c1ccccc1`, the activity, negative = inhibition is inactive: 11.8%.
For `CP(=O)(Nc1ccccc1F)Oc1ccccc1` (stereo not drawn), the activity, negative = inhibition is inactive: 5.33%.
In the case of `CC(C)c1ccc(OP(C)(=O)Nc2ccc(SC(F)(F)F)cc2)cc1` (stereo not drawn) it was inactive: 7.82%.
In the case of `COc1ccccc1OP(C)(=O)Nc1ccc(C)cc1C` (stereo not drawn) it was inactive: -3.55%; in that of `CP(=O)(Nc1ccccn1)Oc1ccccc1` (stereo not drawn), inactive: -7.47%; in that of `CCc1ccc(OP(C)(=O)O)cc1`, inactive: -12.9%.
Next, `Cc1c(NP(C)(=O)Oc2ccc(C(C)C)cc2)c(=O)n(-c2ccccc2)n1C` (stereo not drawn): inactive: 7.67%; `O=[N+]([O-])c1cc([N+](=O)[O-])c(Nc2ccccn2)c([N+](=O)[O-])c1`: inactive: -24.4%.
For the compound `CP(=O)(Nc1ccc(Cl)cc1Cl)Oc1ccccc1` (stereo not drawn), the activity, negative = inhibition was inactive: 16.8%.
Next, `CP(=O)(OCCOc1ccccc1)OCCOc1ccccc1`: inactive: 12.2%.
Next, `Cc1nc2ccc3ccccc3c2o1.O=[N+]([O-])c1cc([N+](=O)[O-])c(O)c([N+](=O)[O-])c1`: inactive: -6.54%; `COc1ccccc1OP(C)(=O)Nc1ccc(C)c(C)c1` (stereo not drawn): inactive: 0.857%.
Turning to `COc1ccc(OP(C)(=O)Nc2ccccc2Br)cc1` (stereo not drawn), the activity, negative = inhibition is inactive: 2.9%.
For the compound `Cc1cc(C)cc(OP(C)(=O)Nc2cccc(C(F)(F)F)c2)c1` (stereo not drawn), the activity, negative = inhibition is inactive: -2.01%.
Next, `CCOC(=O)c1ccc(NP(C)(=O)Oc2ccc(Cl)cc2)cc1` (stereo not drawn): inactive: 2.06%.
In the case of `CP(=O)(Nc1ccc(Cl)cc1)Oc1ccc(F)cc1` (stereo not drawn) it was inactive: 4.87%; in that of `O=C(OCCCN1CCCC1)C(O)(c1ccccc1)C1CCCCC1` (stereo not drawn), inactive: -63.5%.
In the case of `COc1ccccc1OP(C)(=O)Nc1c(C)n(C)n(-c2ccccc2)c1=O` (stereo not drawn) it was inactive: 11.4%.
As for `CCc1ccc(OP(C)(=O)Nc2cccnc2)cc1` (stereo not drawn), the activity, negative = inhibition is inactive: 6.46%.
Regarding `CP(=O)(Oc1ccccc1)N1CCOC1=O` (stereo not drawn), the activity, negative = inhibition was inactive: 2.79%.
In the case of `COc1ccc(OP(C)(=O)Nc2ccc(Br)cc2)cc1` (stereo not drawn) it was inactive: -3.01%.
In the case of `CCN(CC)CC(O)COC(=O)C(O)(c1ccccc1)C1CCCCC1` (stereo not drawn) it was inactive: 0.655%.
